For assay [1], the target named is Apoptosis regulator Bcl-2 (Homo sapiens, UniProt P10415). Briefly: Binding affinity to BCL2 (unknown origin) by fluorescence polarization assay. In general terms: In fluorescence polarisation assays a small probe gives low polarisation when free and higher when bound to something large.
Assay [2] addresses Induced myeloid leukemia cell differentiation protein Mcl-1 (Homo sapiens, UniProt Q07820). In words: Binding affinity to MCL1 (unknown origin) by fluorescence polarization assay.

Chains of the proteins cited; added tags and fusions are not shown.
UniProt P10415, whole entry: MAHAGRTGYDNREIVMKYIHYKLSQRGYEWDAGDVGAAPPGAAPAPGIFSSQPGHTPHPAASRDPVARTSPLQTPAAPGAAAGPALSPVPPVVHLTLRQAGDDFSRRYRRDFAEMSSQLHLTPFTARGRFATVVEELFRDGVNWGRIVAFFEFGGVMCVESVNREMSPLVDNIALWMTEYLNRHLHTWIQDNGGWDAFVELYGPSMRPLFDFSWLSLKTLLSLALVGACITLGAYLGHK
UniProt Q07820, whole entry: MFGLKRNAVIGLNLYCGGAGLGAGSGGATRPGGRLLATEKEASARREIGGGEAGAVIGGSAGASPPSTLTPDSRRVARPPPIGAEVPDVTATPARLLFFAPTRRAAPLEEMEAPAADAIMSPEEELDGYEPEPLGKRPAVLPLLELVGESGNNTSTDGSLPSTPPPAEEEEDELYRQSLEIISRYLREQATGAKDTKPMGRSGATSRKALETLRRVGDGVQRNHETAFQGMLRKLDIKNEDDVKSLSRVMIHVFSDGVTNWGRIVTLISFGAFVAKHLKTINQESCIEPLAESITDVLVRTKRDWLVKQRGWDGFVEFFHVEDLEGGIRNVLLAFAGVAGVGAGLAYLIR

For orientation: pKi means the negative decadic logarithm of the Ki, by convention in mol/L. A low value points to a high Ki. By pIC50 is commonly meant the negative decadic logarithm of the IC50, by convention in mol/L. Higher therefore signals a small IC50.

SMILES strings stand for the structures. pIC50, pKi: −log10 of the molar value.

Turning to `CC1(C)CCC(c2ccc(Cl)cc2)=C(CN2CCN(c3ccc(C(=O)NS(=O)(=O)c4ccc(N[C@H](CCN5CCOCC5)CSc5ccccc5)c(S(=O)(=O)C(F)(F)F)c4)cc3)CC2)C1` [NAVITOCLAX], the pKi in assay [1] is above 9.00.
In turn, `CN(C)CC[C@H](CSc1ccccc1)Nc1ccc(S(=O)(=O)NC(=O)c2ccc(N3CCN(Cc4ccccc4-c4ccc(Cl)cc4)CC3)cc2)cc1[N+](=O)[O-]` [ABT 737] had a negative-log IC50 (pIC50) in assay [2] below 6.00.

The values above are taken from ChEMBL document CHEMBL3817778, “Small molecules targeting Mcl-1: the search for a silver bullet in cancer therapy” (Medchemcomm, 2016).
